Experimental data: patent US5387578A (priority 1990, dated 1995)
In brackets after ≈: the same amount, converted by molar mass. Several values for one entry are separate records, joined by “and”; a condition that tells them apart may be missing. Equal values may be shown once. Read-outs that look alike come from different tables or passages of the source.

Experiments:
[1] = tested on: P388/DX Johnson leukemia
[2] = tested on: P388/DX Johnson leukemia; remark: listed apart in the source
[3] = tested on: LoVo (human colon adenocarcinoma) cells; experiment: cells; details: 4 h, read-out: ID50 (IC50, concentration inhibiting by 50% colony growth), LoVo
[4] = tested on: LoVo (human colon adenocarcinoma) cells
[5] = tested on: LoVo-Doxo-resistant (LoVo/DX) cells; experiment: cells; format: cell-based; details: Homo sapiens, 4 h, read-out: ID50 (IC50, concentration inhibiting by 50% colony growth), LoVo/DX
[6] = iv day 1, 0.66 mg/kg as content of 13b (optimal dose)
[7] = iv day 1, 1 mg/kg as content of 13b (not marked optimal)
[8] = iv day 1, 0.09 mg/kg (optimal dose)

Compound: copolymer of 3-methacryloylamino-2-hydroxypropane and 14-O-{1-[4-(6-methacryloylaminocaproyl)piperazinlyl]-carbonylmethyloxy-cyclohexyl}-3'-deamino-3'[2(S)-methoxy-4-morpholinyl]doxorubicin [1^vii]
- T/C % [1, 6]: 233%
- Toxic deaths [1, 6]: 0/10
- T/C % [1, 7]: 177%
- Toxic deaths [1, 7]: 0/10

Compound: COc1cccc2c1C(=O)c1c(O)c3c(c(O)c1C2=O)C[C@@](O)(C(=O)COC1(OCC(=O)O)CCCCC1)C[C@@H]3O[C@H]1C[C@H](N2CCO[C@H](OC)C2)[C@H](O)[C@H](C)O1 [Compound 3', 14-O-(1-carboxymethyloxy-cyclohexyl)-3'-deamino-3'-[2(S)-methoxy-4-morpholinyl]doxorubicin]
- T/C % (median survival time; % over untreated controls) ([2]; mouse, in vivo): 184%
- Toxic deaths ([2]; mouse, in vivo): 0/10
- IC50 [3]: 0.24 µg/mL (≈ 0.3 µM)
- cytotoxicity compared with doxorubicin [4]: more cytotoxic than doxorubicin, both on sensitive and resistant cell lines
- times less cytotoxic than parent compound 13b ([4]; human): 15-20 times

Compound: COc1cccc2c1C(=O)c1c(O)c3c(c(O)c1C2=O)C[C@@](O)(C(=O)CO)C[C@@H]3O[C@H]1C[C@H](N)[C@H](O)[C@H](C)O1 [Doxorubicin]
- T/C % ([1]; mouse, in vivo): 105% and 100%
- T/C % (median survival time; % over untreated controls) ([2]; mouse, in vivo): 100%
- IC50 [3]: 0.06 µg/mL (≈ 0.11 µM)

Compound: COc1cccc2c1C(=O)c1c(O)c3c(c(O)c1C2=O)C[C@@](O)(C(=O)CO)C[C@@H]3O[C@H]1C[C@H](N2CCO[C@H](OC)C2)[C@H](O)[C@H](C)O1 [Compound 13b]
- T/C % ([1]; iv day 1, 0.076 mg/kg): 177%
- Toxic deaths ([1]; iv day 1, 0.076 mg/kg): 0/28
- T/C % [1, 8]: 192%
- Toxic deaths [1, 8]: 0/39
- T/C % (median survival time; % over untreated controls) ([2]; ip day 1, 0.1 mg/kg): 136%
- Toxic deaths ([2]; ip day 1, 0.1 mg/kg): 0/10
- T/C % (median survival time; % over untreated controls) ([2]; ip day 1, 0.125 mg/kg): 155%
- Toxic deaths ([2]; ip day 1, 0.125 mg/kg): 1/10
- IC50 [5]: 0.033 µg/mL (≈ 0.0513 µM)
- IC50 [3]: 0.016 µg/mL (≈ 0.0249 µM)
